Source: patent US20030004318A1

Target: tumor-associated glycoprotein TAG-72 (human)
Assay: TAG-72-coated plate assay with 125I goat anti-human IgG probe, Scatchard analysis; mean of 7 analyses

Substance: chimeric CC49 antibody MuVH/MuVK (ATCC HB 9884)
- Ka: 7.62e+09 M⁻¹
